Source: patent publication US20160084841A1, “Method for Predicting Clinical Effect of Immunotherapy” (INTERNATIONAL INSTITUTE OF CANCER IMMUNOLOGY, INC., priority 2013, published 2016)

Tested on: pancreatic cancer patient
Assay: Anti-WT1126 IgG antibody titer (ELISA) in serum of a patient given WT1126 peptide and an anticancer agent
Type: in vivo, human
Details: one pancreatic cancer patient, combination with an anticancer agent; before vs 7 months after start; ELISA antigen WT1-frg1; FIG. 20
Procedure: From a pancreatic cancer patient receiving a combination therapy with WT1126 peptide and an anticancer agent, a serum sample was obtained before the start of administration of the vaccine and at 7 months after the start of administration. Each serum sample was stored at −20° C. until assay.
The measurement of the antibody titer using WT1-frg1 (SEQ ID NO: 64) was performed in the same way as in the aforementioned WT1-frg3 (SEQ ID NO: 57). The measurement of the antibody titer using WT126-134 (SEQ ID NO: 65), WK126-134 (SEQ ID NO: 66), WT128-134 (SEQ ID NO: 67), WT126-132 (SEQ ID NO: 68), WT129-134 (SEQ ID NO: 69), WT126-131 (SEQ ID NO: 70), or WT126-130 (SEQ ID NO: 71) was performed in the same way as in the aforementioned WT332-347 (SEQ ID NO: 58), etc.

RMFPNAPYL [WT1126 peptide]
anti-WT1126 IgG antibody titer after the start of administration of the vaccine: increase in anti-WT1126 IgG antibody titer was detected
